The values below are quoted from earlier work in patent publication US20110046173A1 (priority 2009, published 2011).

The series deals with analgesia. To be noted: mice; cited from earlier work.

In the case of L-methadone, the “interaction with oxymorphone, oxycodone, fentanyl, alfentayl or meperidine” value is on record as “only additive effects”. `CN1CC[C@]23c4c5ccc(O)c4O[C@H]2[C@@H](O)C=C[C@H]3[C@H]1C5` [Morphine, morphine]: the “interaction with oxymorphone, oxycodone, fentanyl, alfentayl or meperidine” value is “only additive effects”.
